Results reported in US12636370B2, “Combination therapy for treatment of cancer” (Institute For Cancer Research, priority 2019, dated 2026).

By UniProt entry, the sequences of proteins in these tests, tags left out.
UniProt P50750, whole entry: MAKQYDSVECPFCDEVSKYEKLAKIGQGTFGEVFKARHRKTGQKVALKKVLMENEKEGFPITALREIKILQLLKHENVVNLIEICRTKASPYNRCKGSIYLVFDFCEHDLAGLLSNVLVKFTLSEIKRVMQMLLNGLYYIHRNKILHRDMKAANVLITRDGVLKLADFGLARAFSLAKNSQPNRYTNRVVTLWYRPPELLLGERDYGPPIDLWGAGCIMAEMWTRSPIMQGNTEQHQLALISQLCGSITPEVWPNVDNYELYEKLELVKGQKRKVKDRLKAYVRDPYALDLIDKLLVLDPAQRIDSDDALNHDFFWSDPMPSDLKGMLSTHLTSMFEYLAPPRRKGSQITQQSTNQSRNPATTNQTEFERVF

Legend:
Type in all cases: cell-based
CDK9 = CDK9 (Homo sapiens, UniProt P50750); assay: Western blot of CDK9 protein levels, OVCAR8 Thal-R cells; conditions: Thal 500 nM or 2 μM kinase inhibitor, 4 hours
OVCAR8 MZ1-R cells = assay: CellTiter-Glo cell viability, OVCAR8 MZ1-R cells; conditions: OVCAR8, inhibitor screen, escalating doses, 5 days
OVCAR8 Thal-R cells = assay: CellTiter-Glo cell viability, OVCAR8 Thal-R cells; conditions: OVCAR8, escalating doses, 5 days
Description: Chronic exposure of OVCAR8 cells to CDK9 PROTAC (Thal SNS 032) sensitized cells to RAD001 or GSK1904529A. […] Moreover, these studies show both BET PROTACs and CDK9 PROTACs elicit a similar dependency on MTOR signaling to promote drug resistance. […] OVCAR8 Thal-R cells were treated with Thal (500 nM) or (2 μM) GSK529A, lapatinib, or RAD001 for 4 hours and protein levels were assessed by Western blot. (FIG. 15B). […] Parental or Thal-R OVCAR8 cells were treated with escalating doses of GSK1904529A (FIG. 15C), lapatinib (FIG. 15D), or RAD001 (FIG. 15E) for 5 days and cell viability was assessed by CellTiter-Glo. Thal-R inhibitor treated cell viabilities were normalized to DMSO treated Thal-R cells. Combination therapies involving GSK529A or RAD001 and Thal SNS 032 improved growth repression of OVCAR8 cells. OVCAR8 cells were treated with 100 nM Thal SNS 032, escalating doses of GSK529A or RAD001, or the combination of Thal SNS 032 and kinase inhibitors, for 5 days and cell viability was assessed by CellTiter-Glo (FIGS. 15F and 15G).

Structure (SMILES): CS(=O)(=O)CCNCc1ccc(-c2ccc3ncnc(Nc4ccc(OCc5cccc(F)c5)c(Cl)c4)c3c2)o1 [lapatinib]
- CDK9 protein levels (CDK9): overcome by GSK529A, lapatinib or RAD001 treatment
- sensitivity of MZ1-R cells relative to JQ1-R cells or parental cells (OVCAR8 MZ1-R cells): more sensitive
- sensitivity of Thal-R cells relative to parental cells (OVCAR8 Thal-R cells): more sensitive
